Series [1] concerns WI 38 cells. Briefly: Toxic effect on WI 38 cells, control wells (Experiment 2). As to the method:
Virus concentration=dil 2. Incubation during 30 min in heater keeping 37° C. After 30 min the effect of the hydrogen peroxide is aborted with the addition of 0.1 ml catalase solution into the vial (=1 kU/ml). • 0.7 ml 5% glucose solution+0.1 ml dil 1 of RV7 (=a7) or RV8 (=a8)+0.1 ml of the hydrogen peroxide solution (=final concentration in the vial=[…]). Incubation and abortion of the hydrogen peroxide effect similar as in a).
After the addition of catalase, samples are transferred to a 96-well plate with flat bottom according to table 3.

For series [2], the system named is WI 38 cells. Briefly: Toxic effect on WI 38 cells, control wells (Experiment 1). As to the method: Cell culture: Human lung cell fibroblasts (WI 38, ATCC-CCL-75) was used for cytopathic effect detection. 10-fold serial dilutions had been made from the concentrated viral suspension. […] Then the media was changed to RPMI with 2% of fetal calf serum, which was preserved during the assay. The cells were incubated in CO2enriched air at 37° C. During the experiments a cell culture of 17th-18^thpassage was used.
In table 1 the content of each of the 10 vials (Eppendorf) is listed. The vials were incubated in a heater keeping a stable temperature of 37° C. 1000 U of catalase was added after 15, 30 and 60 min of incubation. 2×50 μl from each vial was transferred to duplicate cell wells (a 96-well plate).

The test system of series [3] is human lung fibroblast cells (WI 38). Briefly: Leniency to human lung fibroblast cells (WI 38), laboratory studies. It counts as cell-based.

Turning to Glucose oxidase [GO], in the series on WI 38 cells [1] (wells 50 U GO/ml), the “Effect on WI 38 cells after 2 days” value is listed as “tox” and the “Effect on WI 38 cells after 10 days” value is reported as “tox”. Besides, in the series on WI 38 cells [1] (wells 50 UGO, PBS), the “Effect on WI 38 cells after 2 days” value is given as “tox” and the “Effect on WI 38 cells after 10 days” value is reported as “tox”. Besides, in the series on WI 38 cells [2] (GO 40 U/ml, no virus), the “Day 3 (toxic effect on WI 38 cells, control)” value is on record as “(tox)”; the “Day 5 (toxic effect on WI 38 cells, control)” value is given as “(tox)”; the “Day 7 (toxic effect on WI 38 cells, control)” value was “(tox)”. Besides, the “Toxic effect on WI 38 cells” value in the series with WI 38 cells [2] (Glucose Oxidase) is recorded as “slight toxic effect”.
Regarding galactose oxidase, the “Leniency to human lung fibroblast cells (WI 38)” value in series [3] is given as “very lenient”.
